From publication PMC7723054
The list shows a part of the results.

B1: hsa-mir-126 (structured_RNA)
RNA: GGGCACAUCUACCAUGGAAGAUACGACAGGUGUACGAAGUUUCAGCACGCGCUGUGACACUUCAAACUCGUGCUGAAGCUUCGUGCAC
B2: hsa-mir-6509 (structured_RNA)
RNA: GGGAGUUCCACAAGACGAGGGUGACUCCGGUGUACGAAGUUUCAGCGGAACACUAUAUUAAUCAGGUUUCCGCUGAAGCUUCGUGCAC
B3: hsa-mir-29a (structured_RNA)
RNA: GGGACUGCGACAUGAGACAUUGUCUAACGGUGUACGAAGUUUCAGCUUCAGAGUCAAUAUAAUUUUCUAGGCUGAAGCUUCGUGCAC
B4: hsa-mir-1233-2_1233-1 (structured_RNA)
RNA: GGGAACGAUCGAGCCGUACCAUGGAGACGGUGUACGAAGUUUCAGCGGCAGGGGGAGCUGCAGGGCUAUGGGAGGGGCCCCAGCGUCUGAGCUGAAGCUUCGUGCAC
B5: hsa-mir-152 (structured_RNA)
RNA: GGGAACUCGGUAGAGCCGCACGAAAUGUGGUGUACGAAGUUUCAGCCCGACUCGGGCUCUGGAGCAGUCGCUGAAGCUUCGUGCAC
B6: hsa-mir-708 (structured_RNA)
RNA: GGGACAGGAGGAGACCCCUGAACCUUUUGGUGUACGAAGUUUCAGCGCUGGGGGUAAAUGACUUGCACAUGAACACAACGCUGAAGCUUCGUGCAC
B7: hsa-mir-4451 (structured_RNA)
RNA: GGGAAUGUGACCCUCCUCCCGCAUAGUAGGUGUACGAAGUUUCAGCGCUCCCAACCAACCACUUCCACAUGUUUUGCUGGUGCUGAAGCUUCGUGCAC
B8: hsa-mir-4662a (structured_RNA)
RNA: GGGACUAUAAGAGGGGCUCACGUGAACCGGUGUACGAAGUUUCAGCCUUUAGCUAUUCUGAAUGCCUAAAGGCUGAAGCUUCGUGCAC
B9: hsa-mir-3942 (structured_RNA)
RNA: GGGAGUUACGCGCACGAGCAUACGUUGAGGUGUACGAAGUUUCAGCGAAAUAGGCUGCGAAGAUAACAGUAUUUCGCUGAAGCUUCGUGCAC
B10: hsa-mir-6751 (structured_RNA)
RNA: GGGAUACUAAGUAACAGGGCCCACUCCGGGUGUACGAAGUUUCAGCGUGUCUGGCCCCAGCAGCCCAGACUGCUGAAGCUUCGUGCAC
B11: hsa-mir-1225 (structured_RNA)
RNA: GGGAACGUACAUGAACUGCGCAUAAGAUGGUGUACGAAGUUUCAGCGGGGAGAGGGACACGCCCUGGGCUCUGCCCAGGGUGCAGCCGGACUGACUGAGGCUGAAGCUUCGUGCAC
B12: hsa-mir-640 (structured_RNA)
RNA: GGGAACACGCUGGAAAGGACGAUUGUUAGGUGUACGAAGUUUCAGCUCAGACACAUCAGAUCCCUUAUCUGUAAAAUGGGCAUGAGCUGAAGCUUCGUGCAC
B13: hsa-mir-6832 (structured_RNA)
RNA: GGGAAGUGAGGUAUGGAAUUUGACUAGGGGUGUACGAAGUUUCAGCGGGUCAGUGGCAGAGCCAGGCAGAUGCUGACCCGCUGAAGCUUCGUGCAC
B14: hsa-mir-27a (structured_RNA)
RNA: GGGAAGACCUCGGGGAGAACGCAAAUCUGGUGUACGAAGUUUCAGCUGAGCAGGGUCCACACCAAGUCGUGUUCAGCUGAAGCUUCGUGCAC
B15: hsa-mir-4760 (structured_RNA)
RNA: GGGAGCUGGGCUAAUGGUGUCAAAUCCCGGUGUACGAAGUUUCAGCAGUUAGAAUUCUUAAGUAUCAAAACUAAAUGCUGAAGCUUCGUGCAC
B16: hsa-mir-6075 (structured_RNA)
RNA: GGGACCCACCGCUAGGAGCAGAGGAUUAGGUGUACGAAGUUUCAGCCCUGCCUGCCCUCCAGGUCAUGUUCCAGUGUCCCACAGAUGCAGCACCACGGGCUGAAGCUUCGUGCAC
B17: hsa-mir-6786 (structured_RNA)
RNA: GGGAACCGCACGUUAAGGGACAUUUAGCGGUGUACGAAGUUUCAGCGCGUCACGUGCACCCAAGUGACGCGCUGAAGCUUCGUGCAC
B18: hsa-mir-892a (structured_RNA)
RNA: GGGAAAAGACAGACCACGAGUCGACCAUGGUGUACGAAGUUUCAGCAGUCACUUACACUACAUGUCACUGCUGAAGCUUCGUGCAC
B19: hsa-mir-559 (structured_RNA)
RNA: GGGAUGUAUCCCCGUCACGCCUAAUUCGGGUGUACGAAGUUUCAGCAAAAUUACUUUUGGUAAAUACAGUUUUGCUGAAGCUUCGUGCAC
B20: hsa-mir-26a-1 (structured_RNA)
RNA: GGGAGUACUAGCAGAAGCUGGGCUCACCGGUGUACGAAGUUUCAGCUAGGCUGUGCAGGUCCCAAUGGGCCUAGCUGAAGCUUCGUGCAC
B21: hsa-mir-1227 (structured_RNA)
RNA: GGGAAACGUAGGAACCGACCGCUAGCUUGGUGUACGAAGUUUCAGCGUGGUGGGCACUGCUGGGGUGGGCACAGCAGCCAUGCAGAGCGGGCAUUUGACCCCGUGCCACCCUUUUCCCCAGGCUGAAGCUUCGUGCAC
B22: hsa-mir-5692b (structured_RNA)
RNA: GGGAAUGGACAGAUGCGGCAGGUCGAUAGGUGUACGAAGUUUCAGCGUGUUCACACAUAAUGUGUACACCAUGUGUGUACACGCUGAAGCUUCGUGCAC

biological target: U1A (Homo sapiens, UniProt P09012); assay: FOREST: bead pull-down of RNA structure library v1, barcode microarray; U1A/LIN28A: 20 mM HEPES pH 7.5, 80 mM KCl, 20 mM NaCl, 10% glycerol, 2 mM DTT, 0.1 ug/uL BSA, 4 C; BG4/CIRBP/DHX36: 10 mM Tris-HCl pH 7.5, 100 mM KCl (or LiCl),; high values mean tight binding

| Binder | binding signal |
| --- | --- |
| B1 | 0.84 z-score |
| B2 | 0.834 z-score |
| B3 | 0.831 z-score |
| B4 | 0.827 z-score |
| B5 | 0.825 z-score |
| B6 | 2.35 z-score |
| B7 | 0.822 z-score |
| B8 | 0.82 z-score |
| B9 | 0.82 z-score |
| B10 | 0.82 z-score |
| B11 | 0.815 z-score |
| B12 | 0.813 z-score |
| B13 | 0.813 z-score |
| B14 | 0.807 z-score |
| B15 | 0.799 z-score |
| B16 | 0.798 z-score |
| B17 | 4.1 z-score |
| B18 | 2.29 z-score |
| B19 | 0.796 z-score |
| B20 | 0.795 z-score |
| B21 | 0.795 z-score |
| B22 | 0.783 z-score |

biological target: T1, LIN28A (human?, UniProt Q9H9Z2 1-209); assay: as above
T1 sequence: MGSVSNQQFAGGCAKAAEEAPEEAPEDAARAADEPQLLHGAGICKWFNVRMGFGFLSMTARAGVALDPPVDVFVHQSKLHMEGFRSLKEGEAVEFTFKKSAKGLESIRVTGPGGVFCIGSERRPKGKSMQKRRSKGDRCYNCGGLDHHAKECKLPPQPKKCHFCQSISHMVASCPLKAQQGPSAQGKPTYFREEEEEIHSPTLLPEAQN

| Binder | binding signal |
| --- | --- |
| B1 | 0.944 z-score |
| B2 | 1.3 z-score |
| B3 | 0.328 z-score |
| B4 | 2.51 z-score |
| B5 | -0.653 z-score |
| B6 | -0.0985 z-score |
| B7 | -0.857 z-score |
| B8 | -1.74 z-score |
| B9 | 2.31 z-score |
| B10 | 0.304 z-score |
| B11 | 0.666 z-score |
| B12 | 0.92 z-score |
| B13 | 0.955 z-score |
| B14 | -0.459 z-score |
| B15 | 0.345 z-score |
| B16 | 0.792 z-score |
| B17 | -1.39 z-score |
| B18 | -0.273 z-score |
| B19 | -1.11 z-score |
| B20 | -0.849 z-score |
| B21 | -0.223 z-score |
| B22 | 0.805 z-score |

biological target: T2, CIRBP (Homo sapiens, UniProt Q14011 1-172); assay: as above
T2 sequence: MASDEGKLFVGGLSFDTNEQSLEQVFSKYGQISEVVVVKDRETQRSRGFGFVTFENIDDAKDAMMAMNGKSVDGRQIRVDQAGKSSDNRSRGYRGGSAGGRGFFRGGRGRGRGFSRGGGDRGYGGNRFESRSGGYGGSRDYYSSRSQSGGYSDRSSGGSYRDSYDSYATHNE

| Binder | binding signal |
| --- | --- |
| B1 | -0.567 z-score |
| B2 | -0.108 z-score |
| B3 | -0.848 z-score |
| B4 | 0.572 z-score |
| B5 | 0.16 z-score |
| B6 | -0.742 z-score |
| B7 | -0.808 z-score |
| B8 | -0.565 z-score |
| B9 | -0.221 z-score |
| B10 | -0.409 z-score |
| B11 | 1.05 z-score |
| B12 | -0.5 z-score |
| B13 | 1.04 z-score |
| B14 | -0.326 z-score |
| B15 | 0.724 z-score |
| B16 | 0.449 z-score |
| B17 | -0.5 z-score |
| B18 | 0.585 z-score |
| B19 | -1.41 z-score |
| B20 | -1.37 z-score |
| B21 | -0.238 z-score |
| B22 | 0.0476 z-score |

biological target: T3, DHX36 (Homo sapiens, UniProt Q9H2U1 1-1008); assay: as above
T3 sequence: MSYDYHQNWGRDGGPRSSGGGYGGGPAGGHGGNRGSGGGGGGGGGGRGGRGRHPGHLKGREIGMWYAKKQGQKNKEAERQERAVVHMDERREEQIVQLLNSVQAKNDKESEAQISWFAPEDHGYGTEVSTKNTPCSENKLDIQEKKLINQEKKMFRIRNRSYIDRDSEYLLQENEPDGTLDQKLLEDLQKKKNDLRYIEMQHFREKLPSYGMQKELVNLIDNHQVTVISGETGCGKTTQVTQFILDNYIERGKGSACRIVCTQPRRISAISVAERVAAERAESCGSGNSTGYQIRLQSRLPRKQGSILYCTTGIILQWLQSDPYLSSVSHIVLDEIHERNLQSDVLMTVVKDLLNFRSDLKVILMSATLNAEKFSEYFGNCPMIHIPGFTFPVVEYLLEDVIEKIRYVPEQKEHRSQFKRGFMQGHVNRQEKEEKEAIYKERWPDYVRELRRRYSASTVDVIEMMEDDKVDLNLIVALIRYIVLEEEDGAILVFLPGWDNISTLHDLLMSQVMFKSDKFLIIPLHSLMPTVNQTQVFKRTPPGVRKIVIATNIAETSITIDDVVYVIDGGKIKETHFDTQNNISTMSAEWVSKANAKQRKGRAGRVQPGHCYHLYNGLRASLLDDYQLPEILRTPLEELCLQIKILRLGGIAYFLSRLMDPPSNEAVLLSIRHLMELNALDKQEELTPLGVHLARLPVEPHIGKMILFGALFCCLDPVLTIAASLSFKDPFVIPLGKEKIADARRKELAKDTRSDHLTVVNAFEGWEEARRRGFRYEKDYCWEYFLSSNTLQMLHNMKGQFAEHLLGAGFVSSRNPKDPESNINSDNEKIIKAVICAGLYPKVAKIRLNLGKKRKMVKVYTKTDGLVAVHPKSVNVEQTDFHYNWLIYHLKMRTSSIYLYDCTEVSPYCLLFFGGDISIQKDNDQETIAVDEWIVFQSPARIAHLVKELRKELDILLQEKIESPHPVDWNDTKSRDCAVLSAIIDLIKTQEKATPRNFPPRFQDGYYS

| Binder | binding signal |
| --- | --- |
| B1 | 1.27 z-score |
| B2 | -0.0241 z-score |
| B3 | -0.319 z-score |
| B4 | 3.25 z-score |
| B5 | -0.618 z-score |
| B6 | 0.462 z-score |
| B7 | -0.52 z-score |
| B8 | -0.251 z-score |
| B9 | 0.973 z-score |
| B10 | 0.0849 z-score |
| B11 | 1.54 z-score |
| B12 | 0.546 z-score |
| B13 | 1.03 z-score |
| B14 | -0.214 z-score |
| B15 | -0.176 z-score |
| B16 | 1.24 z-score |
| B17 | -0.631 z-score |
| B18 | 0.227 z-score |
| B19 | -0.661 z-score |
| B20 | -0.79 z-score |
| B21 | 0.982 z-score |
| B22 | 2.3 z-score |
